The values below come from patent US6399316B1, “PACAP receptor protein, method for preparing said protein, and use thereof” (Takeda Chemical Industries, Ltd., priority 1994, dated 2002).

The target in experiment [1] is T1, Bovine PACAP receptor protein (Bos taurus, UniProt Q29627).
T1 construct: The complete primary structure of bovine PACAP receptor protein based on pBPR-T was deduced; expressed in transfected cells; host or cells: CHO cells, pBPR-T in pRc/CMV, G-418 selected
T1 sequence (Q29627 38-513): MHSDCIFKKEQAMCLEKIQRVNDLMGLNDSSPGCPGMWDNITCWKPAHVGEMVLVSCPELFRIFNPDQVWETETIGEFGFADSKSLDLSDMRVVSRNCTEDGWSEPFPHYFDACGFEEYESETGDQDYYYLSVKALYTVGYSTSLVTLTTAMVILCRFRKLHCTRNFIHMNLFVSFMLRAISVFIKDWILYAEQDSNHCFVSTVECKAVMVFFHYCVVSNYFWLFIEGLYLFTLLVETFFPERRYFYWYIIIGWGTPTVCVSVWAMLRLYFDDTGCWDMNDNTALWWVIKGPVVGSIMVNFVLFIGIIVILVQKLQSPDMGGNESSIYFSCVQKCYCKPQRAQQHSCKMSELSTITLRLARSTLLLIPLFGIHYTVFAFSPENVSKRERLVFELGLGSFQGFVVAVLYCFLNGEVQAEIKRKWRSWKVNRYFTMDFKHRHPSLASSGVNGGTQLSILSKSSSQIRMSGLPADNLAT
Description: Intracellular cyclic AMP production of bovine PACAP receptor cDNA-expressed CHO cells. It counts as cell-based. The conditions noted are these: 37° C., 30 minutes, 0.2 mM 3-isobutyl-1-methylxanthine, FIG. 36.

Experiment [2] has as its target T2, rat PACAP receptor protein Type I-A (pRPR3-A) (Rattus norvegicus, UniProt P32215).
T2 construct: pRPACAPR46 and pRPACAPR5 were recombined at the BamHI site to prepare pRPACAPR46-5 having a complete translation frame; expressed in transfected cells; host or cells: CHO cells, pRPR3-A (pRc/CMV); clone A12 for cAMP
T2 sequence (P32215 20-467 isoform P32215-5 limits assumed): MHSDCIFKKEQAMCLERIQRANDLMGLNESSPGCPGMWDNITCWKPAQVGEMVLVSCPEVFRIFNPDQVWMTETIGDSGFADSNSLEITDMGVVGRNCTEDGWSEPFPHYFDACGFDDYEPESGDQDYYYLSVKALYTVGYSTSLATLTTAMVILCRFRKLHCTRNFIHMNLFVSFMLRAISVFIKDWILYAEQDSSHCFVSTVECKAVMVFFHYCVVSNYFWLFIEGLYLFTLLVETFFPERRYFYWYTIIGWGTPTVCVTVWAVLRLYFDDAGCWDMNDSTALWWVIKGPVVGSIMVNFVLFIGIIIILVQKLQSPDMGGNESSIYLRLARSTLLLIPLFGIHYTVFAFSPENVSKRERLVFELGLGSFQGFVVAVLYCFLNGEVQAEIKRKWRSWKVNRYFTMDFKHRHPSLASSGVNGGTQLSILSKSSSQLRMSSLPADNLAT
The experiment can be described thus: Intracellular cyclic AMP of rat PACAP receptor cDNA-introduced CHO cells, strain A12. It counts as cell-based. To be noted: CHO strain A12, 37° C., 40 minutes, 0.5 mM IBMX, FIG. 43. Here is the method:
(§1) From the binding experiment with [^125I]-PACAP27 of (3) described above, using CHO strains A12 and B17 highly producing rat PACAP receptor protein, the production promotion of intracellular cyclic AMP with PACAPs was detected in the following manner. Each 48-well plate for tissue culture was inoculated with each of the cell strains. at a density of 1.0×10^5 cells/well, followed by cultivation for 3 days. The plate was washed twice with Ham's F12 medium supplemented with 0.1% BSA and 0.5 mM IBMX, and 500 μl/well of the same medium was added thereto. PACAP27, PACAP38 or VIP having each concentration was added thereto in a 1/100 amount, followed by standing at 37° C. for 40 minutes. The supernatant was removed, and extraction was conducted with 100% cold ethanol. The extract was evaporated to dryness with a centrifugal freeze dryer, and redissolved in the buffer attached to an EIA kit for assaying cyclic AMP (Amersham). Then, the amount of cyclic AMP was assayed according to the formulation of the kit.

Experiment [3] addresses T3, human PACAP receptor protein (Homo sapiens, UniProt P41586).
T3 construct: expressed in transfected cells; host or cells: CHO-K1 cells (ICN), pTS849 (pRc/CMV), G-418 selected
T3 sequence (P41586 21-468): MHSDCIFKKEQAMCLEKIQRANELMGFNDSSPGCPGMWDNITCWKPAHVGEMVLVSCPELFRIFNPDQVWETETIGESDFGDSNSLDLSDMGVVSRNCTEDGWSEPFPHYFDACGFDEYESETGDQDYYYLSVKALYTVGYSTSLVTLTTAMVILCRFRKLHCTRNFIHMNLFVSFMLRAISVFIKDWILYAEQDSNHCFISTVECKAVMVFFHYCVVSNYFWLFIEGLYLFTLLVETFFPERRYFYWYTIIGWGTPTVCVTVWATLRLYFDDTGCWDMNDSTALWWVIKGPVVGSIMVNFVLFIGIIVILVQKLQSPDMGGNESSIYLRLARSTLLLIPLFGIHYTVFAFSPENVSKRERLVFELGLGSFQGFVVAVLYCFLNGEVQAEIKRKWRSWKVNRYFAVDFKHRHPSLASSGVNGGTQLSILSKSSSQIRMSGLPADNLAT
The experiment can be described thus: Intracellular cyclic AMP of human PACAP receptor protein-expressed CHO-K1 cells. It counts as cell-based. Here is the method: After washing twice with Hank's buffer containing the culture buffer, 10 mM HEPES and 0.05% BSA, the CHO-K1 cells were cultivated in the above-mentioned buffer supplemented with 0.2 mM 3-isobutyl-1-methylxanthine at 37° C. for 60 minutes. […] After absorption of the buffer, the cells were washed twice with the culture buffer. Then, cAMP was extracted from the cells with 20% perchloric acid. After transfer to a 1.5-ml Eppendorf tube, the extract was centrifuged with a Tomy microcentrifuge at 12,000 rpm for 5 minutes, and the supernatant was neutralized with 1.5 N KOH/60 mM HEPES to prepare a cell eluted solution. The concentration of cyclic AMP was determined by the acetylation method of a cAMP assay system (Amersham). Under these determination conditions, when nothing was added, the amount of intracellular CAMP was 0.7 pmole/well.

The target in experiment [4] is T4, purified bovine PACAP receptor protein (Bos taurus, UniProt Q29627).
T4 construct: from tissue; host or cells: bovine cerebrum
T4 sequence (Q29627 38-513): T1 sequence (Q29627 38-513)
The experiment can be described thus: Competitive binding experiment for the purified PACAP receptor protein with [125I]PACAP27. To be noted: vs 100 pM [125I]PACAP27, FIG. 31. The protocol: (§2) The test sample (membrane fraction or solubilized membrane protein fraction) was appropriately diluted with buffer D (20 mM Tris, 5 mM magnesium chloride, 0.1% BSA and 0.05% digitonin, pH 7.4). […] To 0.1 ml of this reaction solution, 1.5 ml of buffer E (0.1% BSA, 0.05% CHAPS, 20 mM Tris and 5 mM magnesium chloride, pH 7.4) cooled with ice was added, and immediately, the mixed solution is filtered through a glass fiber filter. […] Results of the saturation binding experiment were subjected to Scatchard plot analysis to determine the dissociation constant and the maximum binding.
Analysis results obtained by polyacrylamide electrophoresis for the final purified sample in the presence of sodium dodecylsulfate are shown in FIG. 28. […] This protein having a molecular weight of about 57,000 is the PACAP receptor protein occurring in the bovine cerebrums.

The target in experiment [5] is T1, Bovine PACAP receptor protein. Description: Intracellular inositol phosphate of bovine PACAP receptor cDNA-expressed CHO cells. To be noted: 37° C., 20 minutes, FIG. 37. It counts as cell-based. Here is the method:
The pathway of signal transmission of inositol phosphate well known as the pathway of signal transmission together with cyclic AMP was examined. […] One hundred microliters of 20% perchloric acid was added thereto to stop the reaction, and intracellular inositol phosphate was extracted. The extract was neutralized with 1.5 M KOH. All inositol phosphate was separated from free inositol by the use of ion exchange chromatography (AGI-X8, Bio RAD). Thereafter, inositol phosphate was eluted with 1 M ammonium formate/0.1 M formic acid, and the amount of inositol phosphate was measured with a scintillation counter.

For experiment [6] the target is unchanged. Description: Competitive binding experiment, membrane fraction of bovine PACAP receptor cDNA (pBPR-T)-expressed CHO cells. The conditions noted are these: 100 pM [125I]-PACAP27, 25° C., 75 minutes, FIG. 35. The protocol:
The transformants (CHO cells) cultivated for 3 days after subculture were separated using 0.2 mM EDTA/phosphate buffer, and suspended in 10 mM sodium carbonate buffer supplemented with 1 mM EDTA, 0.5 mM phenylmethylsulfonyl fluoride (PMSA), 20 μg/ml leupeptin, 4 μg/ml E-64 and 1 μg/ml pepstatin. The suspended cells were disrupted with a Polytron homogenizer (Kinematica). The disrupted product was centrifuged with a high speed cooling centrifuge (CR26H, Roter RR18, Hitachi, Ltd.) at 3,000 rpm for 10 minutes to obtain a supernatant. The resulting supernatant was further ultracentrifuged with an ultracentrifuge (SCP70H, Roter RPZ35T, Hitachi, Ltd.) at 30,000 rpm for 60 minutes to obtain pellets. The resulting pellets were suspended in a buffer [20 mM Tris-HCl (pH 7.4), 0.25 M sucrose, 2 mM EDTa, 0.5 mM PMSF, 20 μg/ml leupeptin and 1 μg/ml pepstatin] to prepare a membrane fraction suspension.
Bound ligands were separated from free ligands through a glass fiber filter. […] The binding was examined with a a γ-ray counter. The dissociation constant and the maximum binding were examined by Scatchard plot analysis (FIG. 34).

In experiment [7] the target is T3, human PACAP receptor protein. The experiment can be described thus: Competitive inhibition experiment, membrane fraction of human PACAP receptor-expressed CHO-K1 cells. The class given is binding. The conditions noted are these: FIG. 47. Here is the method:
as §2

The target of experiment [8] is T5, rat PACAP receptor protein Type I-B (pRPR4-B) (Rattus norvegicus, UniProt P32215).
T5 construct: two kinds of complete primary structures of rat PACAP receptor protein were deduced; expressed in transfected cells; host or cells: CHO cells, pRPR4-B (pRc/CMV); clone B17 for cAMP
T5 sequence (P32215 20-495 isoform P32215-2 limits assumed): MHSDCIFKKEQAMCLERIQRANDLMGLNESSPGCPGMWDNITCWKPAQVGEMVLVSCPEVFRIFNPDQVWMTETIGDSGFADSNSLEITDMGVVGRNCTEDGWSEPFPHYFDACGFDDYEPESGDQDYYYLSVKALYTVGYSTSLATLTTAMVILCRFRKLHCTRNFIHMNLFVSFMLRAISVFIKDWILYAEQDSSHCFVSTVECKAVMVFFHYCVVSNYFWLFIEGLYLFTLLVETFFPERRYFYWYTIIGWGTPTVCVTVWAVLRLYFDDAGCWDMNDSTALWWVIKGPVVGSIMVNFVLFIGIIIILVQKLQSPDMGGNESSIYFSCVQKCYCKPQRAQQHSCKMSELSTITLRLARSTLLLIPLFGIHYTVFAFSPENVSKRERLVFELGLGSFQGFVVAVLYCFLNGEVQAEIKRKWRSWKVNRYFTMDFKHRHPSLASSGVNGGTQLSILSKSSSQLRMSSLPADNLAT
Description: Intracellular cyclic AMP of rat PACAP receptor cDNA-introduced CHO cells, strain B17. It counts as cell-based. To be noted: CHO strain B17, 37° C., 40 minutes, 0.5 mM IBMX, FIG. 43. The protocol:
as §1

Setting [9] is: 0.1 mM added, basal 0.7 pmole/well.

For “PACAP38: pituitary adenylate cyclase activating polypeptide consisting of 38 amino acid residues, SEQ ID NO: 46-NH2”, in experiment [1], the “concentration of intracellular cyclic AMP” value is reported as “increased depending on the concentrations”. The “production of intracellular cyclic AMP” value in experiment [2] is “promoted the production of intracellular cyclic AMP, depending on the concentrations”. Further, in experiment [3] (setting [9]), the “accumulation of cyclic AMP” value is “about 21 pmoles/well” and the “accumulation of cyclic AMP relative to the basal level” value is “about 30 times the basal level”. In addition, the “concentration of intracellular cAMP” value in experiment [3] (37° C., 30 minutes, 0.2 mM 3-isobutyl-1-methylxanthine, FIG. 48) is on record as “increased depending on the concentrations”. Besides, the “reaction with purified PACAP receptor protein in competitive binding experiment” value in experiment [4] is “reacting”. The “concentration of inositol phosphate” value in experiment [5] was “increased depending on the concentrations”. The “reactivity (competition with [125I]-PACAP27)” value in experiment [6] is “high reactivity”. Further, the “competition with [125I]-PACAP27” value in experiment [7] was “competed”. For the same substance, in experiment [8], the “production of intracellular cyclic AMP” value is listed as “promoted the production of intracellular cyclic AMP, depending on the concentrations”.
